These are literature values, as cited in US20100297112A1, “COMBINATIONS COMPRISING DMXAA FOR THE TREATMENT OF CANCER” (Antisoma Research Limited, priority 2005, published 2010).

Molecules are shown by their SMILES.

The data set relates to mouse and human liver microsomes. Conditions: diclofenac 100 μM; cited from earlier work.

For `O=C(O)Cc1ccccc1Nc1c(Cl)cccc1Cl` [diclofenac], the “inhibition of 6-methylhydroxylation of DMXAA” value is on record as > 54% and the “inhibition of glucoronidation of DMXAA” value is > 70%.
